Results published in article PMC11312515, “Biochemical and Structural Characterization of a Novel Psychrophilic Laccase (Multicopper Oxidase) Discovered from Oenococcus oeni 229 (ENOLAB 4002)” (International Journal of Molecular Sciences, 2024).

Substrate: CCn1c(=NN=c2sc3cc(S(=O)(=O)O)ccc3n2CC)sc2cc(S(=O)(=O)O)ccc21
Assay: purified protein
Conditions: McIlvaine buffer pH 2.5, 24 °C, sigmoidal kinetics

B1: LcOe 229 (Oenococcus oeni PSU-1) (protein)
chain: MELIKNYFFDEGAYDYHDGAYKHLIRPKTKTHKLIIPKVLKADKIEGNTTYYTIHAQEGETNILDGKATHTWGYNGSLLGPLIRYQSGRHYHLTLVNDLPEVTTWHWHGLNIPGPIEDGGPHAPVLPGKSREIEFDVNQPTMTAWLHPHPCPHTAEQVWKGLAAPVAVVNPLDDLPQLPHTWGVDDIPLIFQDRTFHDSQWDYQADYDMDGTLGDTALVNGTVNAEFTVTRPCLRLRVLNGANRRELRLNSDQNIVMTQIASDGGFLPHAVEMTKIMLTNAERAEILLDFSDYKKGGRIVLKADDVPILTLKVGEFTEDNRRQLPKTLKQIERDFTGSPSHQVIMEGMDDSVRINGKLYDMTRIDDRQEIGKNEIWDVSNTNDSMPGMGMIHPFHMHGTEFLVLSRNGKKPYPNEFGFKDTVAVNPGEHVKLLVKFNVPGIFMYHCHILEHEDTGMMAQIEAVDPNNPQHWNLKDLCDKNMPDSNMRM
notes: full length, 488 residues, 55544 Da, in pET-28a(+) NheI/BamHI, N-terminal His tag (thrombin-cleavable; cleavage told for crystallography), E. coli BL21(DE3)/pGro7; Ni-NTA; monomer; PCR fragment given as 1641 bp
K0.5: 0.07 (±0.00) mM
Vmax: 12.1 µmol/min/mg
kcat: 11.2 s⁻¹
kcat/Km: 162000 M⁻¹ s⁻¹
